In brackets after ≈: the same amount, converted by molar mass.

For orientation: NOAEL means the highest dose or exposure tested at which no adverse effect was seen. The term LOAEL denotes the lowest dose or exposure tested at which an adverse effect was seen.

Data set [1] has as its system Colinus virginianus.
The subject of data set [2] is Anas platyrhynchos. The settings on record: short-term; oral; feed; mortality.
Data set [3] has as its system Canidae. Particulars: chronic; duration: 1 years; oral; Dog Other; organ weight.
In data set [4] the test system is Oryctolagus sp. The settings on record: developmental; development.
Data set [5] relates to Rattus norvegicus.
Data set [6] relates to Daphnia magna. The settings on record: chronic/long-term; duration: 21 days; reproduction.
The test system of data set [7] is Tagia sp. The settings on record: acute; duration: 14 days; mortality.
The test system of data set [8] is Oncorhynchus mykiss.
Data set [9] has as its system Aphidius rhopalosiphi. Kind of data set: LR50; higher = less toxic. Particulars: not reported; mortality.

As to `CCOc1nc(C(Cl)(Cl)Cl)ns1` [Etridiazole], the LD50 in data set [1] (acute, oral, mortality) is 560 mg/kg-day; in data set [5] (acute, oral, mortality), 945 mg/kg-day. Besides, the NOEC in [1] (reproduction developmental) is 3.7 mg/kg-day; in [6], 0.37 mg/L; in data set [8] (chronic/long-term, duration: 90 days, growth) it was 0.12 mg/L. Moreover, the LC50 was 286 mg/kg-day in data set [2]; 198 mg/kg in [7]; 2.4 µg/mL (≈ 9.7 µM) in [8] (acute, duration: 96 hours, mortality). Moreover, the NOAEL amounted to 3.1 mg/kg-day in data set [3]; 15 mg/kg-day in data set [4]; 5.3 mg/kg-day in data set [5] (chronic, growth). Besides, the LOAEL in data set [5] (chronic, duration: 2 years, histopathology: nonneoplastic) came to 5 mg/kg-day. Also, the LR50 in data set [9] came to 1490 g/ha.

The record behind these values is EPA's ToxValDB 9.5 (doi:10.2903/j.efsa.2010.1823).
